Test results published in US12234271B2 (Synthorx, Inc., priority 2019, dated 2025).

System: CTLL-2
Assay: CTLL-2 proliferation
Type: cell-based
Settings: mouse CTLL-2
Excerpt: FIG. 4A-FIG. 4B show the dose response curves for pSTAT5 signaling in human LRS primary cell (FIG. 4A) and proliferation response in mouse CTLL-2 populations (FIG. 4B).

For “native IL-2: native (wild-type) human IL-2 used as comparator [reference compound]”, the “CTLL-2 proliferation EC50” value was 0.4558 ng/mL.
